Our source for the EC50 and Kd values is paper PMC11929711 (Plant Cell Reports, 2025).

Assay [1] concerns the target T1, PDL1His(ΔXF) (human, mainly complex neutral N-glycans (GnGn); mannosidic and hybrid glycans (Man4Gn, Man5Gn) only on N192; N219 mostly unglycosylated).
T1 construct: ectodomain (ECD) of human programmed cell death 1 ligand (PDL1); also called PDL1His (GnGn); recombinant PDL1His; source: N. benthamiana ΔXF leaves, transient, apoplastic fluid, purified (Ni-NTA); also unpurified in apoplastic fluid; not shown: polyhistidine tag, C-terminal, kept
Nature of the assay: ELISA; optimized settings: plates coated with 1 µg PDL1His; serial dilutions of ^WTPD1-Fc fusions 20,000-10 ng/mL; detected with anti-human IgG-HRP. Conditions: both partners purified. Background: In an ELISA, binding on a coated surface is turned into a signal by an enzyme label.

Assay [2] deals with T1, PDL1His(ΔXF). Nature of the assay: SPR; Biacore T200, 25 °C; ^WTPD1-^HFc(HEK) captured to ~80 RU on a CM5 chip (Human antibody capture kit); analyte PDL1His 250-4000 nM; 10 mM HEPES pH 7.4, 150 mM NaCl, 0.005% Tween 20; steady-state analysis, kinetic fit not possible. The following applies: both partners purified.

B1: ^WTPD1-Fc(HEK) (Fc fusion, human, UniProt Q15116 25-170, looked up)
chain: LDSPDRPWNPPTFSPALLVVTEGDNATFTCSFSNTSESFVLNWYRMSPSNQTDKLAAFPEDRSQPGQDCRFRVTQLPNGRDFHMSVVRARRNDSGTYLCGAISLAPKAQIKESLRAELRVTERRAEVPTAHPSPSPRPAGQFQTLV
modifications: all glyco-sites decorated with complex glycans (bi-, tri- and tetra-antennary, core-fucosylated, with or without terminal sialylation)
One may read the EC50 as the concentration that produces a half-maximal response. The low end stands for a more potent agent, the high end for a less potent agent. As a reminder, the Kd is the constant that tells how readily two partners part at equilibrium. A higher Kd goes with weaker binding. B1 displayed an EC50 in assay [1] of 5.33 nM. Also, binding in assay [2] was put at a Kd of 2400 nM.
